Data as given in US12552834B2, “Selective MENA binding peptides” (MASSACHUSETTS INSTITUTE OF TECHNOLOGY, priority 2021, dated 2026).

The chains behind the UniProt entries cited, without tags or fusion partners. A line that says so, or that is headed by a name, gives the form on record, which may keep a tag or linker.
UniProt Q8N8S7, with tags, fused parts or gaps: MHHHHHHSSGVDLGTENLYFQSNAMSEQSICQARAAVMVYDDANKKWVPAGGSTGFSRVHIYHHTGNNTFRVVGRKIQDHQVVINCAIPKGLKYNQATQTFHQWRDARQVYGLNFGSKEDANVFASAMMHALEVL

Target: T1, ENAH EVH1 domain (Homo sapiens, UniProt Q8N8S7)
T1 construct: places a 6×-His and TEV cleavage tag N-terminal to the EVH1 domain; 6×-His + TEV cleavage site (N, cleaved yes); made in house; host or cells: E. coli Rosetta2(DE3)
Assay: Biolayer interferometry (BLI), SUMO-peptide fusions binding monomeric ENAH EVH1 domain WT
Experimental: All BLI experiments were performed with 2 replicates on an Octet Red96 instrument (ForteBio). […] The loaded tips were immersed in a solution of ENAH EVH1 domain at a relevant dilution series in BLI buffer at an orbital shake speed of 1000 rpm and run until the binding signal plateaued. ENAH-bound tips were subsequently placed into BLI buffer only for dissociation and run until the binding signal plateaued. KD values were obtained through steady state analysis. […] The association phases were then fit to a one-phase binding model in Prism and the equilibrium steady-state binding signal values from that fit were plotted against ENAH concentration and fit to a single-site specific binding model in Prism to obtain dissociation constants. Errors reported are the standard deviation of two replicates.
Monomeric ENAH, EVL, or VASP EVH1 domains for use in BLI and ITC experiments, or ENAH EVH1-peptide fusions for crystallography was cloned into a pMCSG7 vector (gift from Frank Gertler, MIT), which places a 6×-His and TEV cleavage tag N-terminal to the EVH1 domain. These constructs were transformed into Rosetta2(DE3) cells and grown in 2×YT media supplemented with 100 μg/mL ampicillin. Cells were grown while shaking at 37° C. to an O.D. 600 of 0.5-0.7, and then cooled on ice for at least 20 minutes. They were then induced with 0.5 mM IPTG and grown while shaking at 18° C. overnight. […]

Kd (Table 3, ABI1 truncation peptides) | binding to monomeric ENAH EVH1 domain by BLI, in words | Sequence
3.93 ± 0.875 µM | – | FDDFPPPPPPPPVDYEDEEAAV [ABI1 b]
– | mid-micromolar affinity | PEEELPLPAFEKLNPYPTPSPPHPLYPGRRVIEFSE [TJAP]
